Data taken from ChEMBL document CHEMBL2413018, “Nonclassical antifolates, part 4. 5-(2-aminothiazol-4-yl)-4-phenyl-4H-1,2,4-triazole-3-thiols as a new class of DHFR inhibitors: synthesis, biological evaluation and molecular modeling study” (Eur J Med Chem, 2013).

Test system: Escherichia coli

GENTAMICIN
MIC: 0.5 µg/mL
